Laboratory results as given in publication PMC9536601.

Molecular target: hexon of wild-type human adenovirus type 1 (on virions) (human adenovirus 1)
Assay: SPR; Biacore T200; about 300 to 5,000 RU of Ad virions immobilised on a CM5 chip, coagulation factors flowed over at four concentrations, 50 uL/min; running buffer 10 mM HEPES, 150 mM NaCl, 1 mM CaCl2, 0.5 mM MgCl2, 0.1% BSA, 0.05% polysorbate 20, pH 7.4; regeneration with 3 mM EDTA; global fit to a 1:1 kinetic interaction model, double referencing

## human prothrombin (coagulation factor II) (from UniProt P00734 44-622) (natural protein)
  Kd: 5 nM
  koff: 0.000511 s⁻¹
  kon: 102000 M⁻¹ s⁻¹
